{"source": "PubChem BioAssay AID745", "about": "(Emory University Molecular Libraries Screening Center, 2007)", "note": "The list shows a part of the results, in another mix than the full data. Some of these compounds have results that are not shown, active ones among them. Activity calls are given as the source filed them. Rule as the data show it: active = z-score below about -3; inactive = the rest.", "data": [{"test": "inhibitors of measles virus growth in cells, primary screen, measles RdRp inhibitor project, cell-based, single point, HTS (AID 745)", "settings": "infected Vero cells, GFP fluorescence, 64 h; active compounds read low", "values": [{"smiles": "CC(CN(C)C(C)(C)C)OC(=O)C(O)(c1ccccc1)c1ccccc1", "note": "(stereo unspecified)", "z-score": "inactive: -0.74"}]}]}
